The values below come from ChEMBL document CHEMBL2010744, “Pyridyl aminothiazoles as potent inhibitors of Chk1 with slow dissociation rates” (Bioorg Med Chem Lett, 2012).

In this assay the target is T1, Serine/threonine-protein kinase Chk1 (Homo sapiens, UniProt O14757).
T1 sequence (O14757 whole entry): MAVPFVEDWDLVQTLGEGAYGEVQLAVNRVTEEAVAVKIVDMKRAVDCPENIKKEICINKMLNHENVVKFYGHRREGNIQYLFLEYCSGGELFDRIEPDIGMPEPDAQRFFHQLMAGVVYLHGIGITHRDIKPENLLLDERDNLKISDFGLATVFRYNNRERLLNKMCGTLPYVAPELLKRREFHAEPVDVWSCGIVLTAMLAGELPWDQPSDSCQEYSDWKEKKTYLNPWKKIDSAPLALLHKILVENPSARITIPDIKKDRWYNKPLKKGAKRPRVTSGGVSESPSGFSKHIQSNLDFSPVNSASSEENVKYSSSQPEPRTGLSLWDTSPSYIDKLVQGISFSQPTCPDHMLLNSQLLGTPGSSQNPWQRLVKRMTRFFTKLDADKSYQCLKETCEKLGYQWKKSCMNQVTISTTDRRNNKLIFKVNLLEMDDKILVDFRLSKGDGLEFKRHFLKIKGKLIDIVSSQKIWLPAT
Kind of assay: Competitive inhibition of Chk1 in presence of higher ATP levels.

In general, IC50 refers to the concentration that gives 50% inhibition.

SMILES strings stand for the structures.

Take `O=C(CN1CCN(c2ccnc(Nc3ncc(-c4cccnc4)s3)c2)CC1)N1CCOCC1`: the IC50 was 47 nM.

For `NCCNC(=O)c1cncc(-c2cnc(Nc3cc(N4CCOCC4)ccn3)s2)c1`, the IC50 was found to be 0.05 nM.
